The target in this assay is Bcl-2, P10415. Put plainly: co-immunoprecipitation (anti-HA) and anti-Bcl-2 western blot, co-transfected 911 cells. To be noted: remark: other sources report otherwise. On the technique in general: Immunoblotting shows a protein as a band on a membrane.

B1: HA-tagged full length human JFY1 protein, Q9BXH1 1-193 (protein, not shown: small tags and cut ends)
chain: MARARQEGSSPEPVEGLARDGPRPFPLGRLVPSAVSCGLCEPGLAAAPAAPTLLPAAYLCAPTAPPAVTAALGGSRWPGGPRSRPRGPRPDGPQPSLSLAEQHLESPVPSAPGALAGGPTQAAPGVRGEEEQWAREIGAQLRRMADDLNAQYERRRQEEQQRHRPSPWRVLYNLIMGLLPLPRGHRAPEMEPN
As to B1, the fraction of Bcl-2 bound stood at 50%.

Source of the values: patent US20040077832A1.
